From PubChem BioAssay
Nrf2 activator: Nrf2 pathway activation; AREc32 ARE-luciferase reporter (MCF7-derived line), luminescence, 24 h; Potency, µM (highest dose often 46.1 µM), for inactives: at the highest dose activation, usual class: activators; actives 0.31% (n = 410,000); AID 624171; note: potency is the fitted concentration of half-maximal effect; % of control where 0% means no effect; nearly all actives have a fitted effect of over 65% in size
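Quantitative high-throughput format: AREc32 reporter cells, 1000 per well, received compound by pin transfer and were incubated 24 hr at 37 deg C, 5% CO2, before Steady-Glo luminescence detection.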
Nrf2 inh: Nrf2 pathway inhibition; A549 ARE-Fluc reporter, luciferase luminescence, 18-24 h; actives 2.1% (n = 360,000); Potency, µM (doses to about 46 µM), for the others: at the highest dose activity change, negative = inhibition, most hits filed as inhibitors; note: potency is the fitted concentration of half-maximal effect; % is set by controls: 0 for no effect and ±100 for the full control effect; nearly all actives have a fitted effect of over 60% in size
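Concentration-response testing used A549 ARE_Fluc cells at 5000 cells/well. Following an 18-24 h compound incubation, viability was read by fluorescence (Ex 405/Em 525) and luciferase output by luminescence.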
miR-21 reporter: miR-21 reporter, rising signal; HeLa miR-21 FLuc reporter, luciferase, 48 h; Potency, µM (titrated, usually from 38.3 µM), without a hit: top-dose reporter change, positive = more light; AID 2288; 340,000 tested, under 10 active; active = well fitted rising curve with a large enough effect; inconclusive = small, poorly fitted or top-dose-only effect; inactive = no such curve, though single readings can be large or run the other way;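 further: % of control where 0% means no effect; miR-21 action dims this reporter so a rising signal means less miR-21 action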
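Using DMEM plus 10% FBS, HeLa miR-21-FLuc cells are incubated with test compounds (final up to about 40uM) for 48 hours; firefly luciferase signal is then imaged following reagent-mediated lysis.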
A549 tox-1: A549 cytotoxicity, counter-screen for Nrf2 inhibitors; A549 ARE-Fluc cells, CellTiter-Fluor viability, 18-24 h; Potency, µM (doses to about 46 µM), for inactives: top-dose activity change, negative = cytotoxicity, most hits filed as inhibitors; actives 0.16% (n = 390,000); AID 504648; note: potency is the fitted concentration of half-maximal effect; % is set by controls: 0 for no effect and ±100 for the full control effect
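Cytotoxicity counterscreen: CellTiter-Fluor fluorescence was measured in A549 ARE_Fluc cells after 18-24 h of compound exposure in a concentration series. The subsequent BugLite luminescent read reports ARE-luciferase activity.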
Mito fusion act: inhibitors of mitochondrial division or activators of mitochondrial fusion | S. cerevisiae fusion-defective mutant growth rescue, CellTiterGlo 48 h | Potency, µM (highest dose often 46.1 µM), for the others: at the top dose growth rescue (activation), hits mostly activators | actives 0.23% (n = 320,000) | AID 485298; note: potency is the fitted concentration of half-maximal effect; % of control where 0% means no effect; nearly all actives have a fitted effect of over 45% in size
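Temperature-sensitive fusion-defective S. cerevisiae (e.g. fzo1-1, mgm1-5) were grown with compound in YPEG medium (3% ethanol, 3% glycerol) for 48 hours at 37C. Growth rescue was measured as viability by CellTiterGlo luminescence after 10 minutes at ambient.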
FLuc counter 3: counter-screen for Nrf2 inhibitors: firefly luciferase enzyme inhibition. purified firefly luciferase, luminescence inhibition. Potency, µM (series often up to 57.5 µM), for inactives: at the highest dose activity change, negative = inhibition, actives largely listed as inhibitors. shares compounds with Nrf2 inh. AID 720522. actives 4% (n = 1,400); note: potency is the fitted concentration of half-maximal effect; % is set by controls: 0 for no effect and ±100 for the full control effect; nearly all actives have a fitted effect of over 65% in size
A549 tox-2: toxic to A549 ARE-Fluc cells in Nrf2 counterscreen. shares compounds with Nrf2 inh. A549 ARE-Fluc cells, cytotoxicity counterscreen. Potency, µM (titrated, usually from 46.1 µM), for inactives: top-dose activity change, negative = cytotoxicity, actives largely listed as inhibitors. actives 2% (n = 1,400);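 note: potency is the fitted concentration of half-maximal effect; cells exposed to compounds for 18 to 24 hours; % is set by controls: 0 for no effect and ±100 for the full control effect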
ARE-Fluc inh: confirmation of Nrf2 inhibitors in A549 ARE reporter cells; Potency, µM (highest dose often 46.1 µM), without a hit: at the highest dose activity change, negative = inhibition, actives largely listed as inhibitors; actives 74% (n = 1,400); A549 ARE-firefly luciferase reporter, luminescence; shares compounds with Nrf2 inh; AID 720524; note: potency is the fitted concentration of half-maximal effect; % is set by controls: 0 for no effect and ±100 for the full control effect; nearly all actives have a fitted effect of over 65% in size
The depositor's hits bear a star; u = inconclusive; x = no result shown; ! = repeats disagree. The list is not random: actives were taken first. Their share in the collection is about 2.3%. Calls come from the whole dose curve; as a rule, active = well fitted curve in the direction sought with a large enough effect; inconclusive = small, poorly fitted or top-dose-only effect, or another doubt; inactive = no such curve, though single readings can be large; an effect the other way counts as inactive or inconclusive.

SMILES	Nrf2 activator	Nrf2 inh	miR-21 reporter	A549 tox-1	Mito fusion act	FLuc counter 3	A549 tox-2	ARE-Fluc inh
COc1ccc(Cn2c(CCC(=O)Nc3cccc(OC)c3)nc3cccnc32)cc1	0%	2%	1%	-8%	x	x	x	x
CN(C)S(=O)(=O)c1ccc(Nc2nc(C3CC3)nc3c2nnn3Cc2ccccc2Cl)cc1	6%	5.8µM*	0%	-24%	21%	2%	-24%	4.1µM*
COc1cccc(CNC(=O)CCn2c(=O)c3cccn3c3cccnc32)c1	u	1.2µM*!	-4%	1%	-3%	-2%	-3%	7%
COC(=O)c1ccc(OC)c(CN2C(=O)N(c3ccc(C(C)=O)cc3)S(=O)(=O)c3ccccc32)c1	-1%	x	25%	u	x	x	x	x
Cc1nnsc1C(=O)Nc1ccc(S(=O)(=O)N2CCC(C)CC2)cc1	0%	9.2µM*	13%	-15%	4%	-1%	0%	5.2µM*
Cc1ccc(-n2nc(C)c3c(C(=O)Nc4ccc(Br)c(C)c4)cc(C)nc32)cc1	0%	u	0%	7%	x	x	x	x
Cc1cc(C(=O)CN2C(=O)c3ccccc3S2(=O)=O)c(C)n1C(C)C	-3%	2.9µM*	x	-1%	11%	6.7µM*	7%	8.2µM*
O=C(CN1C(=O)c2ccccc2S1(=O)=O)c1ccccc1Cl	x	x	u	x	0%	x	x	x
CCn1c(C)cc(C(=O)CN2C(=O)c3ccccc3S2(=O)=O)c1C	-2%	3.7µM*	x	-3%	11%	8.5µM*	3%	x
Cc1cc(C(=O)CN2C(=O)c3ccccc3S2(=O)=O)c(C)n1-c1ccccc1	-2%	u	u	-7%	17%	x	x	x
COc1ccccc1C(=O)N1CCN(Cc2cc(=O)oc3cc(C)ccc23)CC1	5%	15%	-21%	-9%	x	x	x	x
CNc1cccnc1C=NNC(N)=S	0%	0.58µM*	x	u	x	-23%	-13%	1.5µM*
COc1cc2ccnc(Cc3cccc(OC)c3OC)c2cc1OC	3%	3.7µM*	8%	-1%	1%	3%	-3%	16µM*
CCCN1CCN(c2ncnc3sc(C(=O)Nc4ccc(OC(F)(F)F)cc4)c(C)c23)CC1	-1%	x	6%	-17%	x	x	x	x
CCCCOc1cccc(C(=O)Nc2ccc3oc(-c4cccnc4)nc3c2)c1	-1%	6.5µM*	-2%	-11%	x	-16%	-1%	7.3µM*
CCCCOc1ccc(C(=O)Nc2ccc3oc(-c4cccnc4)nc3c2)cc1	0%	-20%	2%	-1%	x	x	x	x
Cc1ccc(CCNC(=O)CCCn2c(=O)c3cccn3c3ccc(F)cc32)cc1	1%	-15%	4%	-13%	x	x	x	x
Cc1ccc(CON=C2CCN(c3ncc(C(F)(F)F)cc3Cl)CC2)cc1	0%	-16%	1%	15%	-5%	x	x	x
FC(F)(F)c1cnc(N2CCC(=NOCc3ccc(Cl)cc3)CC2)c(Cl)c1	-1%	8.2µM*	0%	-25%	-5%	1%	21%	7%
CC(=O)c1c(C)[nH]c(C(=O)OCc2c(F)cccc2Cl)c1C	0%	5.2µM*	-8%	-12%	-2%	-1%	3%	15µM*

Gathered by group: the compounds so far containing an aryl methoxy group
SMILES	Nrf2 activator	Nrf2 inh	miR-21 reporter	A549 tox-1	Mito fusion act	FLuc counter 3	A549 tox-2	ARE-Fluc inh
COc1ccc(Cn2c(CCC(=O)Nc3cccc(OC)c3)nc3cccnc32)cc1	0%	2%	1%	-8%	x	x	x	x
COc1cccc(CNC(=O)CCn2c(=O)c3cccn3c3cccnc32)c1	u	1.2µM*!	-4%	1%	-3%	-2%	-3%	7%
COC(=O)c1ccc(OC)c(CN2C(=O)N(c3ccc(C(C)=O)cc3)S(=O)(=O)c3ccccc32)c1	-1%	x	25%	u	x	x	x	x
COc1ccccc1C(=O)N1CCN(Cc2cc(=O)oc3cc(C)ccc23)CC1	5%	15%	-21%	-9%	x	x	x	x
COc1cc2ccnc(Cc3cccc(OC)c3OC)c2cc1OC	3%	3.7µM*	8%	-1%	1%	3%	-3%	16µM*

Next section
SMILES	Nrf2 activator	Nrf2 inh	miR-21 reporter	A549 tox-1	Mito fusion act	FLuc counter 3	A549 tox-2	ARE-Fluc inh
CC(=O)c1c(C)[nH]c(C(=O)OCc2cccc(Cl)c2)c1C	8%	u	-26%	-1%	u	x	x	x
CC(=O)c1c(C)[nH]c(C(=O)OCC(=O)NCc2ccc(Cl)cc2)c1C	6%	8.2µM*	x	-14%	1%	2%	0%	13µM*
Cc1ccc[n+](CC(=O)Nc2cc(C(F)(F)F)ccc2Cl)c1	-1%	11%	-7%	1%	-12%	x	x	x
CCC(C)(C)c1ccc(OCCCC[n+]2cccc(C)c2)c(C(C)(C)CC)c1	-2%	8.2µM*	u	u	-4%	-5%	u	6.5µM*
COc1ccc(CCN(C)c2ccc(S(=O)(=O)N3CCCC3)cc2[N+](=O)[O-])cc1OC	4%	u	-4%	-20%	2%	x	x	x
COc1ccc(CN(C)c2ccc(S(=O)(=O)N3CCN(C)CC3)cc2[N+](=O)[O-])cc1OC	-1%	1.3µM*	x	-3%	-5%	-28%	2%	u
COC(=O)c1c(C)oc2ccc(N(C(=O)Oc3ccccc3)S(=O)(=O)c3ccc(C(C)(C)C)cc3)cc12	0%	2.3µM*	11%	-2%	x	2%	-4%	5.2µM*
CCOc1ccc(S(=O)(=O)N(C(C)=O)c2ccc3oc(C)c(C(=O)OC)c3c2)cc1	-2%	2.1µM*	29%	-12%	x	0%	-20%	23µM*
COC(=O)c1c(C)oc2ccc(N(C(C)=O)S(=O)(=O)c3ccccc3)cc12	4%	u	7%	u	u	x	x	x
CCOC(=O)c1c(NC(=O)CCCOc2ccc(C)cc2)sc2c1CCC(C)C2 (stereo unspecified)	0%	3%	-1%	0%	x	x	x	x
Cc1c(CNC(C)CCc2ccccc2)c(C(=O)O)c(C)n1Cc1ccc(F)cc1Cl (stereo unspecified)	1%	5%	11%	-8%	x	x	x	x
CCCCOc1ccc(CNC(=O)Cc2ccc(NC(=O)N3CCCCc4ccccc43)cc2)cc1	-1%	-2%	29%	-3%	x	x	x	x
O=C(NC(=S)Nc1ccc(Cc2ccncc2)cc1)c1ccc(F)cc1	4%	5.8µM*	9%	0%	-4%	-17%	7%	u
Cc1nn(C)c(C)c1NC(=O)COc1ccc(Cl)cc1Br	0%	8.2µM*	x	-12%	-3%	-10%	-7%	7.3µM*
COc1ccc(/C=C/C(=O)Nc2c(C)nn(C)c2C)cc1COc1ccc(Cl)cc1Br	-1%	u	-27%	-20%	0%	x	x	x
O=C(c1cnn2c(C(F)(F)F)cc(-c3ccccc3)nc12)N1CCCCC1c1cccnc1 (stereo unspecified)	0%	u	-5%	3%	4%	x	x	x
O=C(c1cc2nc(-c3ccc(F)cc3)cc(C(F)(F)F)n2n1)N1CCCCC1c1cccnc1 (stereo unspecified)	5%	4.6µM*	24%	u	-4%	-26%	-26%	6.5µM*
COc1ccc(CC(=O)Nc2c(C(=O)N3CCN(c4ccccc4F)CC3)oc3ccccc23)cc1OC	0%	u	28%	-1%	x	x	x	x
